Reference: publication PMC12706802, “Ortho-Hydroxyanilides: Slow-Acting, Selective Histone Deacetylase 1/2 Inhibitors Suitable for Photocaging Applications” (ACS Pharmacology & Translational Science, 2025)

Sequences of proteins named here, by UniProt entry; tags and fusion partners are left off.
UniProt Q13547, whole entry: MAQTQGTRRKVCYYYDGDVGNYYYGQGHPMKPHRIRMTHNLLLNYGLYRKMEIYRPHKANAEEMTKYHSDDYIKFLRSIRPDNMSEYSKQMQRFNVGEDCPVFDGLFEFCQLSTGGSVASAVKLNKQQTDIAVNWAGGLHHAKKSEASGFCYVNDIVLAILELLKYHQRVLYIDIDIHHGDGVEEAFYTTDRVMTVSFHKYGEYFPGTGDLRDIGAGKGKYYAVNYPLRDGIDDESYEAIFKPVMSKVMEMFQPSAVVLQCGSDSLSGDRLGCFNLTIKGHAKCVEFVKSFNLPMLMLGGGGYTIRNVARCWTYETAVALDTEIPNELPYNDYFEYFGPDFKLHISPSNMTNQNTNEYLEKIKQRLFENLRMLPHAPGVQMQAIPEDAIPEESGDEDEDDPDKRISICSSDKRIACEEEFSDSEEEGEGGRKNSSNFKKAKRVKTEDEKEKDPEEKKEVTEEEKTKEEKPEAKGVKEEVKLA

Tests used:
[1] = target: HDAC1 (Homo sapiens, UniProt Q13547); experiment: Binding kinetics via the progression method (continuous HDAC assay); format: biochemical; parameters: purchased BPS Bioscience Inc. #50051; details: 45 min, 28 °C
Procedure: To this end, HDAC1, the substrate, and trypsin were incubated directly with the inhibitor at various concentrations and fluorescence was recorded continuously for 45 min. […] By plotting the ratio of the deacetylation rate in the presence of the inhibitor (v i) to the rate in absence of any inhibitor (v 0) as a function of the inhibitor concentration and fitting the data to an appropriate model (eq 3), the equilibrium […] K i was determined (Figure ).
To investigate the binding mode of both compounds, we performed molecular docking studies. Specifically, ST13 was docked into HDAC2 (PDB ID: 3MAX), a cocrystal structure containing an HDAC inhibitor with an ortho-aminoanilide ZBG and a phenyl group as the FPU.
Appropriate test compound concentrations were chosen based on the previously determined IC50 values. […] Each progression curve was fitted to either obtain the apparent first-order rate constant k obs (eq ) or the linear conversion rates v i and v 0 (eq ). For fast-on/fast-off inhibitors, the ratio v i/v 0 was plotted against the corresponding inhibitor concentrations.

[2] = target: T1, human recombinant HDAC6 (Homo sapiens, UniProt Q9UBN7); experiment: Fluorescence-based biochemical HDAC enzyme inhibition assay (ZMAL substrate)
T1 sequence (Q9UBN7 1-1215): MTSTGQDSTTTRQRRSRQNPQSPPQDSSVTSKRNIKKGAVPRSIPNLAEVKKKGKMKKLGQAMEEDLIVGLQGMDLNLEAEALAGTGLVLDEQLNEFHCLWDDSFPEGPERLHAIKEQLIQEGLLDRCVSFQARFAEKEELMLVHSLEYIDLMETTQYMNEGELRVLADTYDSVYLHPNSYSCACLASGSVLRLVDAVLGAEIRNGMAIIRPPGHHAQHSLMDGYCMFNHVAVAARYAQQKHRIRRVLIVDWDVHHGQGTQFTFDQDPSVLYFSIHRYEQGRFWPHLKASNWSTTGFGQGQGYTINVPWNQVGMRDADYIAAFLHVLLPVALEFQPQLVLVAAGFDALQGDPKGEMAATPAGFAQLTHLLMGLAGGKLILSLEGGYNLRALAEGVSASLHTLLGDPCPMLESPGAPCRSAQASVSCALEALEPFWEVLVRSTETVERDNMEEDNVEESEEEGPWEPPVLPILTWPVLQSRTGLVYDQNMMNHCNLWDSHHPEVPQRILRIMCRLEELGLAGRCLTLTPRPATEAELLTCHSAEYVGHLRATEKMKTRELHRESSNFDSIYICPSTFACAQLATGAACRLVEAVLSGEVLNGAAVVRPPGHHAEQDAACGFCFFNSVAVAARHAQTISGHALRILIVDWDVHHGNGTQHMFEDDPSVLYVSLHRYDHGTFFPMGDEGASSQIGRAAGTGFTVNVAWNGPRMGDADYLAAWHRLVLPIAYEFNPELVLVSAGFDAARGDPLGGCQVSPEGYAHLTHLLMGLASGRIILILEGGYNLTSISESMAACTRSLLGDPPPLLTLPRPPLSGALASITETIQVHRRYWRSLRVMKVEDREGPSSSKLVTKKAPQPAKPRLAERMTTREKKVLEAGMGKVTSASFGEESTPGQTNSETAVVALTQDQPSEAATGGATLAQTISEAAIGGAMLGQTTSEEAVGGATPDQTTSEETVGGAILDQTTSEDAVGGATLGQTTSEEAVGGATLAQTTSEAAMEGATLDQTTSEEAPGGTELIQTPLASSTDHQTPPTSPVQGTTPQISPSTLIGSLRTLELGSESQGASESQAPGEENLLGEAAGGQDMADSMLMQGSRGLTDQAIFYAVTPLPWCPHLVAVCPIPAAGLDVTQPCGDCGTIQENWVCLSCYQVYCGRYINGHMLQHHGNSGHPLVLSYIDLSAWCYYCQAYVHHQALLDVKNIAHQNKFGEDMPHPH

| SMILES | binding mechanism at HDAC1 (progression curves, kobs versus inhibitor concentration) [1] | IC50 [2] [µM] |
| --- | --- | --- |
| O=C(CCCCCCC(=O)Nc1ccccc1)NO [vorinostat, reference compound] | rapidly reached enzyme–inhibitor equilibrium |  |
| CC(=O)Nc1ccc(C(=O)Nc2cc(-c3cccs3)ccc2N)cc1 [Cpd-60, reference compound] |  | > 10 |
